## Antibody variant affinities, Ab-14 light chain, assay B

All variants were tested on one target, the spike HR2 peptide PDVDLGDISGINAS (SARS-CoV-2).

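The starting antibody came from a phage panning campaign against this peptide. The variants were designed computationally from a first round of random CDR variants and then made and measured. Their group label is 14L_En_Gibbs (En: ensemble of fine-tuned language models; Gibbs: Gibbs sampling). In AlphaSeq, yeast of one mating type display the scFv and yeast of the other type display the target. Mating (16 h, 30 °C) was followed by selection of diploids and sequencing of their barcodes. Read counts were normalised to the haploid input and turned into Kd by a linear fit to BCL2-family pairs of known affinity, for each replicate. There are six technical replicates.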

The variants keep the heavy chain, the linker and the frameworks of Ab-14 (scFv order VH, three GGGGS repeats, VL).
VH: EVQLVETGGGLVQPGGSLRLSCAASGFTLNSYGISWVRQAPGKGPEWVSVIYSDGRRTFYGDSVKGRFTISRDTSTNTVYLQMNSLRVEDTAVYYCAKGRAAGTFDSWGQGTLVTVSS
VL: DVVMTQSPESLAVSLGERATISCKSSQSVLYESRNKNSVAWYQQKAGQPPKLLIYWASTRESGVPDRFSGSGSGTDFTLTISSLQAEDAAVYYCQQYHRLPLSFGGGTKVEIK

Each variant is given by its three light chain CDRs, as the data file delimits them; those of the parent are KSSQSVLYESRNKNSVA, WASTRES, QQYHRLPLS. The read-out is the apparent dissociation constant on a log10 scale (nM): the lower, the stronger. An entry "nd" has no value in the source: the pair was not observed among the diploids in that replicate. This suggests poor binding but is not conclusive. Of ten entries with the parent sequence, four were seen in most replicates (averages 0.34 to 2.37), three in one and three in none, so single entries are noisy.

{"CDR-L1": "RLSNHVYDRQGIQNSVA", "CDR-L2": "QDAERAV", "CDR-L3": "QSYDRLPLS", "log10 Kd (nM) by replicate": "nd nd nd nd nd nd", "signal with controls": "0 of 18"}
{"CDR-L1": "IMKEGQEEDAARLNNIA", "CDR-L2": "DHYTRAT", "CDR-L3": "QQYARLPLH", "log10 Kd (nM) by replicate": "nd nd nd nd nd nd", "signal with controls": "3 of 18 (1.71)"}
{"CDR-L1": "MVNTNLVHQANRDNNIA", "CDR-L2": "EAQMVAA", "CDR-L3": "QDYHRLPLI", "log10 Kd (nM) by replicate": "nd 2.53 2.09 nd 1.95 2.25", "signal with controls": "1 of 18 (1.02)"}
{"CDR-L1": "RFTEHLLMLENKIYAIA", "CDR-L2": "NATKTME", "CDR-L3": "QQYFRLPFV", "log10 Kd (nM) by replicate": "1.05 0.54 0.74 0.66 0.62 0.46", "signal with controls": "2 of 18 (3.28)"}
{"CDR-L1": "QMTENDHGHQAGGGSIA", "CDR-L2": "DATETME", "CDR-L3": "QQYMHLPLS", "log10 Kd (nM) by replicate": "0.51 0.62 0.68 0.71 0.79 0.46", "signal with controls": "0 of 18"}
{"CDR-L1": "FIDGNYYDKYQASNSIA", "CDR-L2": "DEAHIQA", "CDR-L3": "QQYDLLPLS", "log10 Kd (nM) by replicate": "nd 2.27 2.45 2.84 2.41 2.24", "signal with controls": "0 of 18"}
{"CDR-L1": "KLTHLSFVLDRQKASVA", "CDR-L2": "DSERKAE", "CDR-L3": "QQYNRLPLT", "log10 Kd (nM) by replicate": "0.83 0.69 0.47 0.35 0.67 0.48", "signal with controls": "0 of 18"}
{"CDR-L1": "SLYEAMQTGGLRTSNIA", "CDR-L2": "DVNQQMR", "CDR-L3": "QHYSRLPLA", "log10 Kd (nM) by replicate": "0.66 0.58 0.48 0.52 0.58 0.79", "signal with controls": "0 of 18"}
{"CDR-L1": "NLFGVEFESAQMGNAIA", "CDR-L2": "DMSHVMA", "CDR-L3": "QQYFMLPLH", "log10 Kd (nM) by replicate": "0.83 0.95 0.90 0.95 1.09 0.93", "signal with controls": "0 of 18"}
{"CDR-L1": "TLLYGPTEARKDMHNIA", "CDR-L2": "DMSERAE", "CDR-L3": "QQYHLLPLI", "log10 Kd (nM) by replicate": "1.24 1.00 0.96 0.81 0.63 0.65", "signal with controls": "0 of 18"}
{"CDR-L1": "VLPDNLLMSESQYHSIA", "CDR-L2": "NGVQRME", "CDR-L3": "QQYERLPLT", "log10 Kd (nM) by replicate": "0.18 0.23 0.36 0.14 0.17 0.39", "signal with controls": "2 of 18 (2.65)"}
{"CDR-L1": "NLQNIGSELSVWKRNIA", "CDR-L2": "DANIRES", "CDR-L3": "QQYFRLPLL", "log10 Kd (nM) by replicate": "0.05 -0.21 0.03 -0.13 -0.23 0.20", "signal with controls": "1 of 18 (2.95)"}
{"CDR-L1": "MLDQMDGQMGGNTNNIA", "CDR-L2": "DVVEHRI", "CDR-L3": "QQYHRLPLS", "log10 Kd (nM) by replicate": "1.35 1.36 0.29 0.87 1.87 0.85", "signal with controls": "0 of 18"}
{"CDR-L1": "QLPNARPDGYLQKNNVA", "CDR-L2": "EGTERSH", "CDR-L3": "QQYMRLPLF", "log10 Kd (nM) by replicate": "-0.10 -0.16 -0.11 -0.23 0.00 -0.04", "signal with controls": "2 of 18 (2.80)"}
{"CDR-L1": "SLELFSLSGDLPWNAVA", "CDR-L2": "NEVVKLA", "CDR-L3": "QQYFRLPLH", "log10 Kd (nM) by replicate": "1.00 1.14 1.44 1.33 1.41 0.84", "signal with controls": "1 of 18 (2.16)"}
{"CDR-L1": "KLSWDCTTDLNQMHSIA", "CDR-L2": "ESEVAVD", "CDR-L3": "QQYAHLPLT", "log10 Kd (nM) by replicate": "1.31 1.91 1.33 1.48 2.18 2.03", "signal with controls": "3 of 18 (2.76)"}
{"CDR-L1": "KIQHLTYFENEGEWSVA", "CDR-L2": "DANTSVL", "CDR-L3": "QDYFRLPLS", "log10 Kd (nM) by replicate": "nd 2.55 nd nd nd nd", "signal with controls": "0 of 18"}
{"CDR-L1": "QLEREALGGANYDYSIA", "CDR-L2": "AQDVAMP", "CDR-L3": "QQYDRLPLI", "log10 Kd (nM) by replicate": "2.11 0.96 0.78 1.16 1.00 1.27", "signal with controls": "3 of 18 (2.67)"}
{"CDR-L1": "TIDDEMPNHGFHWNSIA", "CDR-L2": "GVSTRKQ", "CDR-L3": "QQYDRLPLS", "log10 Kd (nM) by replicate": "1.23 0.92 0.99 1.03 0.88 0.66", "signal with controls": "1 of 18 (3.16)"}
{"CDR-L1": "TLLYGVTENAKPGKAIA", "CDR-L2": "GNEERAQ", "CDR-L3": "QQYFRLPLS", "log10 Kd (nM) by replicate": "nd -0.69 -1.00 nd -0.40 nd", "signal with controls": "0 of 18"}

Picked from the list: the 2 lowest averages where every replicate gave a value.

{"CDR-L1": "QLPNARPDGYLQKNNVA", "CDR-L2": "EGTERSH", "CDR-L3": "QQYMRLPLF", "log10 Kd (nM) by replicate": "-0.10 -0.16 -0.11 -0.23 0.00 -0.04", "signal with controls": "2 of 18 (2.80)"}
{"CDR-L1": "NLQNIGSELSVWKRNIA", "CDR-L2": "DANIRES", "CDR-L3": "QQYFRLPLL", "log10 Kd (nM) by replicate": "0.05 -0.21 0.03 -0.13 -0.23 0.20", "signal with controls": "1 of 18 (2.95)"}

The authors' rule: three or more of the six replicates give a measured affinity, fewer mean a poor binder. A sequence measured in both rounds can read differently, since the two assays cover different ranges. As a blank, each scFv also met three strains without target: over all light chain designs, 4% of these pairings were detected, typically at 2.64 and seldom below 1.59. Also given: how often the same scFv was detected with the empty control strains, with their mean in brackets.

The measurements come from Li et al. 2023 (doi:10.1038/s41467-023-39022-2) through the FLAb antibody collection.